# AlphaSeq binding of Ab-95 light chain variants to a spike HR2 peptide

From the AlphaSeq antibody data of Engelhart et al. 2022 (doi:10.1038/s41597-022-01779-4), copy in the FLAb collection.

Antigen: PDVDLGDISGINAS, a 14-residue peptide of the SARS-CoV-2 spike HR2 region.

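The parent was found by panning a naive human phage display library on the peptide. In library AAYL52, one, two or three CDR residues were substituted; doubles and triples were drawn at random. The scFvs were displayed on barcoded MATa yeast, the peptide on MATalpha yeast. Binding brings cells together so that they mate, and sequencing counts the barcode pairs among the diploids. Scores were corrected for input abundance and mapped to Kd with protein pairs of known affinity run in the same pool. Mating was done three times.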

Parent: Ab-95, a human scFv built as VH, the linker GGGGSGGGGSGGGGS, VL. Only the CDRs of the light chain vary.
VH: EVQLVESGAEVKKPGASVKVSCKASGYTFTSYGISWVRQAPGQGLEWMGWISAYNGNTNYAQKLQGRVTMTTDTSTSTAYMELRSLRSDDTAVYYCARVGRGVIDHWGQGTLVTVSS
VL: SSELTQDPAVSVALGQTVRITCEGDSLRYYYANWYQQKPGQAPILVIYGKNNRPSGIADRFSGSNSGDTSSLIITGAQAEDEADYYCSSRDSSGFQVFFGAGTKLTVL

The parent's light chain CDRs are EGDSLRYYYAN, GKNNRPS, SSRDSSGFQVF; each variant's own CDRs replace them letter for letter.
All variants listed here change V97 of the VL, counted from its first residue.
Affinities are written as log10 Kd with Kd in nM; a lower number is a better binder.
A pair that was not seen in that replicate is written "ND"; this usually means weak binding, but a binder can also be missed.

The variant EGDSLRYYYAN | TKNNRPS | SSRDISGFQCF gave 4.00, ND, ND. With EGDSLRYYYTN | GKNNRPS | SSRDSSGFQHF the result was 2.73, 2.38, 1.90. For EGDSLRYYYKH | GKNNRPS | SSRDSSGFQSF, the assay gave 3.89, 4.36, ND. The variant EGDSLRYYYAF | GKNVRPS | SSRDSSGFQWF showed ND, ND, ND. The variant EGDSLRYYYAN | GKNNRWS | SSRDSSGFQAF showed 3.09, 3.30, 2.97. The variant EGDSLRYYYAN | AKNNRPS | SPRDSSGFQFF gave ND, 3.64, ND. For EGDSLRYYYAN | GKNNCGS | SSRDSSGFQLF, the assay gave 3.74, 3.58, 3.71.

The variant EGDSLRYYYAN | GKNARPS | SSRDSWGFQKF showed 3.46, 4.62, ND. The variant EGDSLRYYYAN | GKNNRPD | SSRDSSGFRAF gave 3.09, 2.74, 2.80. The variant EGDSLRYYYAN | GKQNRPS | SSNDSSGFQGF showed 3.17, 5.15, 3.71. The variant EGDSLRYYYAN | GPNNRMS | SSRDSSGFQWF showed 2.58, 3.27, 2.95. For EGDSLRYYYAN | GKNNRPM | SSRDSSGFQDR, the assay gave 2.61, 3.29, 3.03. The variant EGDSLRYYYAN | IKNNRPS | SSRDSSGFQAT gave ND, ND, ND. For EGDSLRYYYAN | GKNNRPS | SSRDSSAFQNM, the assay gave 3.23, 2.92, 2.74.

The variant EGDSLRYYYAN | GKNNRPS | SSRDSSGFQTF gave 1.22, 1.17, 0.96. With EGDSLRYSYAN | GKNNRPS | SSRDSSGSQTF the result was 2.37, 3.34, ND. With EGDSLRYYCAC | GKNNRPS | SSRDSSGFQGF the result was 4.64, 5.32, ND. The variant EGDSLRYYYAN | GKNVRPL | SSRDSSGFQDF showed 2.77, 2.44, 2.92. For EGDSLRYYHAN | GKNHRPS | SSRDSSGFQAF, the assay gave 3.31, 3.95, 4.42. The variant EGDSLRYYYAN | GKNNRPP | SSQDSSGFQPF gave ND, ND, ND. The variant EGDNLRYYYAN | GKNNRPS | SSRDSSGFQMI gave 2.61, 2.90, 2.71.

With EGPSARYYYAN | GKNNRPS | SSRDSSGFQSF the result was 3.68, 3.17, ND. The variant EGDSLRMYYAN | GENNRPS | SSRDSSGFQMF showed ND, 4.12, ND. The variant EGDSLWYYYAN | GKNNQPS | SSRDSSGFQAF showed ND, 2.48, 3.07. For EGDSLRYYYAN | GHNNRPS | SSRDSMGFQDF, the assay gave 3.08, 3.58, 2.78. The variant EGDSLRYYYAD | GKNNRTS | SSRDSSGFQFF gave 4.99, 4.63, ND. For EGHSLRYYYAN | GKNNRPS | SSRDSSGFQHF, the assay gave 2.54, 2.68, 2.92. The variant GGDSLRYYYAN | GKNNRPS | SSRDSWGFQRF showed 2.34, 2.43, 2.45.

With EGDSLRYYYTN | GKNNRPS | NSRDSSGFQYF the result was 2.96, 3.62, ND. The variant EGDSLRYYYLN | GKNNRPS | SSRDSSGFQQF gave ND, ND, 3.92.

4 of these entries, quoted again:

{"CDR-L1": "EGDSLRYYYAN", "CDR-L2": "GKNNCGS", "CDR-L3": "SSRDSSGFQLF", "replicates, log10 nM": "3.74, 3.58, 3.71"}
{"CDR-L1": "EGDSLRYYYLN", "CDR-L2": "GKNNRPS", "CDR-L3": "SSRDSSGFQQF", "replicates, log10 nM": "ND, ND, 3.92"}
{"CDR-L1": "EGDSLRYYYAN", "CDR-L2": "GKNNRPM", "CDR-L3": "SSRDSSGFQDR", "replicates, log10 nM": "2.61, 3.29, 3.03"}
{"CDR-L1": "EGDSLRYYYAD", "CDR-L2": "GKNNRTS", "CDR-L3": "SSRDSSGFQFF", "replicates, log10 nM": "4.99, 4.63, ND"}

In this assay the parent's reference entry averaged 2.31; its copy inside this library read 2.25.
Background: pairings of library AAYL52 with three empty control strains gave a value in 28% of cases (median 3.91, 5th percentile 2.90). Values in that range, when seen in few replicates, are hard to tell from nonspecific mating.